# In patent US8822407B2, “Preparation of conjugates comprising adenine derivatives and allergenic proteins and their use for specific immunotherapy of allengenic diseases” (Universita' Degli Studi di Firenze, priority 2010, dated 2014):
# Experiments:
# [1] = system: purified CD14+ cells; experiment: Cytokine production by purified CD14+ cells (ELISA of supernatants, 36 hrs); type: cell-based, human; details: Table A
# Description: Circulating mononuclear cells (MNC) are isolated by density gradient (Ficoll-Hypaque) using buffy coats from 14 normal donors (Servizio Immunotrasfusionale e terapie cellulari, Azienda Ospedaliera Universitaria A. Meyer, Firenze). 200×10^6 MNC are separated by the use of a commercial kit (CD14 isolation kit, Miltenyi) by the addition of 400 μl anti-CD14 monoclonal antibody bound to iron beads followed by isolation on magnetic columns (LS column). 50×10^6 monocytes are recovered by positive selection and are extensively washed with calcium and magnesium-free sterile PBS and then seeded in complete medium plus 10% foetal calf serum in 24 flat bottomed plates at the concentration of 1×10^6/ml. […] The plates are incubated for 36 hrs at 37° C. in 5% CO2 humidified atmosphere and the supernatants are collected after centrifugation at 1200 rpm, aliquoted and then stored at −20° C. up to the assay. […]
# (§1) For the determination of cytokines and chemokines of the innate immunity, commercial ELISAs have been used: IL-12p40 (Cytoscreen, Biosource Int, Camarillo, Calif.), IFN-alfa (Cytoscreen), TNF-alfa (Cytoscreen), IL-10 (Pharmingen), IL-6 and CXCL10 (R&D System). 100 μl/well of single supernatants are incubated in flat bottomed plates as specified by the productors and the amounts of the single cytokines are expressed as pg/ml on the basis of a reference curve by using recombinant cytokines. […]
# [2] = system: purified BDCA4+ cells; experiment: Cytokine production by purified BDCA4+ cells (plasmacytoid dendritic cells), ELISA; type: cell-based, human; details: Table C, Donor #2, dose 2.5 μg/ml
# Description: The preparation of purified BDCA4+ cells has been obtained in a similar way starting from MNC of buffy coats of the same 14 healthy donors. After density gradient separation, 500×10^6 MNC have been isolated by the use of a commercial kit (BDCA4 isolation kit, Miltenyi) by addition of 500 μl anti-BDCA4 monoclonal antibody bound to iron beads followed by separation on magnetic columns (LS column). By positive selection 5×10^6 plasmacytoid dendritic cells (PDCs) are recovered, extensively washed with calcium and magnesium-free sterile PBS and seeded in complete medium plus 10% foetal calf serum in 24-flat bottomed plates at the concentration 1×10^6/ml. […] The plates are incubated for 36 hrs at 37° C. in 5% CO2 humidified atmosphere and the supernatants are collected after centrifugation at 1200 rpm, aliquoted and then stored at −20° C. up to the assay. […]
# as §1
smiles,measurement,setting,value
"Nc1nc(SCCCC(=O)ON2C(=O)CCC2=O)nc2c1nc(O)n2Cc1ccccc1 [SA-26E, 4-(6-Amino-9-benzyl-8-hydroxy-9H-purin-2-ylsulfanyl)-butyric acid 2,5-dioxo-pyrrolidin-1-yl ester]",TNF-alfa production,"[1]; Donor #1, dose 2.5 μg/ml",597 pg/mL
same,IL-10 production,"[1]; Donor #2, dose 2.5 μg/ml",243 pg/mL
same,IL-10 production,[2],209 pg/mL
